Laboratory results published in PubChem BioAssay AID717 (Columbia University Molecular Screening Center, 2007).
The list shows a part of the results, in another mix than the full data. Some results for these compounds are left out of this collection, so the calls shown say nothing about other tests. Calls of active or inactive are those of the source. No stated cut-off is given here; in the data, active means activation above about 37%; inactive means the rest.

Amino acid sequences for entries named in this document (tags omitted).
UniProt P34913, whole entry: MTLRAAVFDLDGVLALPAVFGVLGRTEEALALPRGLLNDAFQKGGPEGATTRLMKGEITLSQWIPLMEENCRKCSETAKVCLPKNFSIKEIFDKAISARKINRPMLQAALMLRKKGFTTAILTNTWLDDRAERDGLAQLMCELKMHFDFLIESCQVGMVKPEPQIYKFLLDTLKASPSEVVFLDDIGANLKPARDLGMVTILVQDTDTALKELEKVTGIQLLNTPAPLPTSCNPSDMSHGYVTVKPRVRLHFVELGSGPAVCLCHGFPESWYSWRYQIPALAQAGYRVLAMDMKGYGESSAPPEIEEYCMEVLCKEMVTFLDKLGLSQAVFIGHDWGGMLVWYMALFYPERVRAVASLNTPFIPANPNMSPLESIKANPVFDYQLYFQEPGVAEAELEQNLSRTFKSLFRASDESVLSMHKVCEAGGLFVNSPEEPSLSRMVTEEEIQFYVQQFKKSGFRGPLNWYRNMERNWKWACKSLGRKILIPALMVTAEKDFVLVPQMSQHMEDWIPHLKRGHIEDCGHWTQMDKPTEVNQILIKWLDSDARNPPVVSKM

What follows are compounds tested against Bifunctional epoxide hydrolase 2 (Homo sapiens) (UniProt P34913) (assay: sEH enzyme activity enhancers – biochemical, human sEH, primary screen (AID 717)). Conditions: purified human sEH enzymatic activity, activator screen; at 2 µM; active compounds read high.

Structure (SMILES) | activation
CN(C)c1cccc(C(=O)NCC2(N(C)C)CCCCC2)c1 | inactive: 10.7%
O=C(OC1CN2CCC1CC2)C(CO)(c1ccccc1)c1ccccc1 (stereo not drawn) | inactive: 0.4%
CC(C)N1C(=O)CC2(CCN(CCOC(=O)C(O)(c3ccccc3)c3ccccc3)CC2)C1=O | inactive: 6.3%
